Data as given in patent publication US20160281133A1, “STABILIZATION AND ISOLATION OF EXTRACELLULAR NUCLEIC ACIDS” (QIAGEN GMBH, priority 2013, published 2016).

Test system: whole blood samples
Assay: 18S DNA duplex real time PCR assay, increase of DNA in plasma of stored blood, example 5
Type: cell-based, human
Details: DMAA added to whole blood; within 3 days of storage

CC(=O)N(C)C [DMAA, N,N-dimethylacetamide]
increase of cell-free DNA: Only a minor increase of cell-free DNA
